Our source for the IC50 values is US10227373B2 (priority 2014, dated 2019).

Chains of the proteins cited; added tags and fusions are not shown. Residues count along the entry.
UniProt A0A5F9DS62, 1-428: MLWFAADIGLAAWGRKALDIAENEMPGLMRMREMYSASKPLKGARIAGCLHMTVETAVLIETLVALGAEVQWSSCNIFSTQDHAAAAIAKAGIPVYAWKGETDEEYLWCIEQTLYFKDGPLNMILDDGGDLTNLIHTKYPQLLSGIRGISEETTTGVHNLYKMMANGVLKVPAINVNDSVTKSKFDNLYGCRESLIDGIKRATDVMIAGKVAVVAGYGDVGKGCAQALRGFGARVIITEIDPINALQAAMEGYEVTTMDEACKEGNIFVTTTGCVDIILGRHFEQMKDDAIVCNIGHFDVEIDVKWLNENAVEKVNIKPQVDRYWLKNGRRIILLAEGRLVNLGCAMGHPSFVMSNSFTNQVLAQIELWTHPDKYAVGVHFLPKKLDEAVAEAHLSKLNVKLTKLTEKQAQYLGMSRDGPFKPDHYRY

In general, IC50 refers to the concentration at which inhibition is half-maximal.

This assay addresses S-adenosylhomocysteine hydrolase (SAHase) (Oryctolagus cuniculus, UniProt A0A5F9DS62). Briefly: SAHase inhibition (release of free homocysteine). It counts as biochemical. The note with it: SAHase from rabbit erythrocytes; read-out: IC50 versus SAHase.

As for Neplanocin A, the IC50 is 0.9 nM.
